{
  "source": "patent US8173686B2",
  "about": "“Use of picoplatin to treat colorectal cancer” (priority 2006, dated 2012)",
  "origin": "cited, not measured here",
  "conditions": "in vivo",
  "data": [
    {"smiles": "O=C1[O][Pt]2([NH][C@@H]3CCCC[C@H]3[NH]2)[O]C1=O", "note": "[oxaliplatin]", "values": [
      {"measurement": "main / dose-limiting toxicity", "value": "Peripheral neurotoxicity is well documented"}
    ]}
  ]
}
